# Measurements: patent US8715537B2, “Molecular precursor methods and materials for optoelectronics” (Precursor Energetics, Inc., priority 2009, dated 2014)
# Columns and labels:
# [1] = Solubility of molecular precursor in organic solvents; type: physicochemical
# [2] = Thermogravimetric analysis (TGA): transition of molecular precursor into material; type: physicochemical
# Protocol: Thermogravimetric analysis (TGA) was performed using a Q50 Thermogravimetric Analyzer (TA Instruments, New Castle, Del.). NMR data were recorded using a Varian 400 MHz spectrometer.
substance,measurement,setting,value
Cu—(S^tBu)3Ga^tBu [Example 6],Solubility: benzene,"[1]; solvent benzene, 'heat'",ss heat
same,Solubility: diethyl ether,[1]; solvent diethyl ether,nil
same,Solubility: pentane,[1]; solvent pentane,nil
same,Solubility: toluene,"[1]; solvent toluene, 'heat'",s heat
same,TGA transition ending (completed) temperature,"[2]; TGA, transition of precursor into material",about 225 °C
same,TGA yield for the transition,[2]; residue at end of transition,45.7 % (w/w)
